ASAP1 inh: inhibitors of human ASAP1 ArfGAP activity, primary screen, biochemical, fluorescence polarization; AID 624377, 2012; inhibition, % at 16.5 µM; ASAP1-stimulated ARF1 GTP hydrolysis, GDP FP detection; actives 0.19% (n = 360,000); Arf-GAP with SH3 domain, ANK repeat and PH domain-containing protein 1 (Homo sapiens), …; in the data active = inhibition above about 25%
ARFGAP1 inh: inhibitors of rat ARFGAP1 GAP activity, primary screen, biochemical, fluorescence polarization, GDP tracer; inhibition, % at 16.5 µM; ADP-ribosylation factor GTPase-activating protein 1 (Rattus norvegicus), Q62848; AID 651572, 2012; Arfgap1-stimulated ARF1 GTP hydrolysis, GDP FP detection; actives 0.26% (n = 360,000);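 active = inhibition above a per-plate limit, mean inhibition of low control wells plus 3 SD, cut at about 25% in these data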
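system = rat Arfgap1 catalytic domain, aa 1-136 | technique = FP, GDP Alexa 633 tracer displaced from anti-GDP antibody, 620/688 nm | compound = one concentration, 16.5 µM, DMSO 1.26% | medium = HEPES-based buffer, pH 7.5 | timing = compound-enzyme preincubation 20 min, reaction 120 min, detection 60 min, 25 °C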
CendR NRP1 mod: modulators of CendR peptide binding to NRP-1, primary screen, biochemical, fluorescence polarization, uHTS. Neuropilin-1 (Homo sapiens), O14786. FAM-RPARPAR peptide binding to NRP-1. inhibition, % at 25 µM. actives 0.85% (n = 360,000);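 active = inhibition or corrected inhibition above about 18%, plus a signal ratio from 0.5 to 1.5, limit read from the data, passing the limit was not always enough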
MC4R ag barr: MC4R agonists recruiting beta-arrestin, primary screen, cell-based, luminescence, agonist arm of biased-ligand search | U2OS MC4R beta-arrestin complementation; percent of melanotan II response, DMSO zero | Melanocortin receptor 4 (Homo sapiens), P32245 | actives 0.98% (n = 360,000) | activation, % at 8.9 µM;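 active = activation above a per-plate cutoff, the mean activation of sample wells on that plate plus 3 SD, cut at about 8% in these data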
MC4R antag cAMP: MC4R antagonists of cAMP signaling, primary screen, cell-based, TR-FRET, antagonist arm of biased-ligand search. inhibition, % at 6.5 µM. AID 540295, 2011. Melanocortin receptor 4 (Homo sapiens), P32245. actives 0.48% (n = 360,000). MC4R-expressing cells, MTII-stimulated cAMP, LANCE TR-FRET;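 active = inhibition above its plate's cutoff, the mean of tested wells on that plate plus 3 SD, cut at about 29% in these data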
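Material: human MC4R-expressing U2OS cells. Probe or stimulus: Melanotan II challenge. Dosing: 6.5 µM single dose. Times: 30-min compound, 1-h challenge, 1-h detection, room temperature. Technique: TR-FRET with Eu-cAMP and labeled anti-cAMP, 671 nm. Replication: singlicate.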
UUG fidelity: alters start codon recognition fidelity in yeast | S. cerevisiae UUG-firefly luciferase reporter, luminescence/redox ratio | activity score, % at 18.7 µM | 350,000 compounds, 0.13% hits | AID 602363;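 active = replicate mean at a twofold rise or more, about +100% in these data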;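 note: firefly luciferase made from a UUG start codon reports start codon fidelity; reporter light over untreated wells divided by growth signal over untreated wells; some hits fall short of that in this replicate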
U2OS cAMP counter: nonselective cAMP signaling inhibitors, parental cells, counter-screen for MC4R biased antagonist project, cell-based, TR-FRET, U2OS, forskolin, triplicate. LANCE TR-FRET. actives 26% (n = 1,600). inhibition, % at 6.5 µM. shares compounds with MC4R antag cAMP. AID 602193, 2012;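 active = mean inhibition over triplicates above the low-control well mean plus 3 SD, set per campaign, cut at about 13% in these data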;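 also: signal is single emission at 671 nm which falls as cellular cAMP rises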
MC4R antag conf: MC4R cAMP antagonists, retest, confirmation, cell-based, TR-FRET; shares compounds with MC4R antag cAMP; MC4R-expressing cells, MTII-stimulated cAMP; inhibition, % at 6.5 µM; actives 27% (n = 1,600); AID 602195, 2012; in the data active = inhibition above about 29%
Numbers stand for hits; . = inactive; / = no result. Shown are actives, neighbours in structure and some others; about 2.3% of the full set was active somewhere.

Sequences of proteins named here, by UniProt entry; tags and fusion partners are left off.
ADP-ribosylation factor GTPase-activating protein 1 (Rattus norvegicus), Q62848, UniProt Q62848, whole entry, looked up: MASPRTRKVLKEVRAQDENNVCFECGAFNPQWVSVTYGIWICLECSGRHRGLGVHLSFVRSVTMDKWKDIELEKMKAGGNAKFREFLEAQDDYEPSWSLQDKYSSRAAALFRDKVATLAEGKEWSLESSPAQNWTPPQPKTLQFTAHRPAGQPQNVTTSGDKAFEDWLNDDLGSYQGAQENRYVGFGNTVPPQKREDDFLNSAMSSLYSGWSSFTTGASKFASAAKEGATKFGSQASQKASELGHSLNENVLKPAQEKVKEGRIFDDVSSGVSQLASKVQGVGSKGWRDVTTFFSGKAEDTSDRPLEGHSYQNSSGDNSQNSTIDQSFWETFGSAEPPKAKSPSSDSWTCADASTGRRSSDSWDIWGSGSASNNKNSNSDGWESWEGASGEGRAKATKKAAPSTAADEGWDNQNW
Neuropilin-1 (Homo sapiens), O14786, UniProt O14786, whole entry, looked up: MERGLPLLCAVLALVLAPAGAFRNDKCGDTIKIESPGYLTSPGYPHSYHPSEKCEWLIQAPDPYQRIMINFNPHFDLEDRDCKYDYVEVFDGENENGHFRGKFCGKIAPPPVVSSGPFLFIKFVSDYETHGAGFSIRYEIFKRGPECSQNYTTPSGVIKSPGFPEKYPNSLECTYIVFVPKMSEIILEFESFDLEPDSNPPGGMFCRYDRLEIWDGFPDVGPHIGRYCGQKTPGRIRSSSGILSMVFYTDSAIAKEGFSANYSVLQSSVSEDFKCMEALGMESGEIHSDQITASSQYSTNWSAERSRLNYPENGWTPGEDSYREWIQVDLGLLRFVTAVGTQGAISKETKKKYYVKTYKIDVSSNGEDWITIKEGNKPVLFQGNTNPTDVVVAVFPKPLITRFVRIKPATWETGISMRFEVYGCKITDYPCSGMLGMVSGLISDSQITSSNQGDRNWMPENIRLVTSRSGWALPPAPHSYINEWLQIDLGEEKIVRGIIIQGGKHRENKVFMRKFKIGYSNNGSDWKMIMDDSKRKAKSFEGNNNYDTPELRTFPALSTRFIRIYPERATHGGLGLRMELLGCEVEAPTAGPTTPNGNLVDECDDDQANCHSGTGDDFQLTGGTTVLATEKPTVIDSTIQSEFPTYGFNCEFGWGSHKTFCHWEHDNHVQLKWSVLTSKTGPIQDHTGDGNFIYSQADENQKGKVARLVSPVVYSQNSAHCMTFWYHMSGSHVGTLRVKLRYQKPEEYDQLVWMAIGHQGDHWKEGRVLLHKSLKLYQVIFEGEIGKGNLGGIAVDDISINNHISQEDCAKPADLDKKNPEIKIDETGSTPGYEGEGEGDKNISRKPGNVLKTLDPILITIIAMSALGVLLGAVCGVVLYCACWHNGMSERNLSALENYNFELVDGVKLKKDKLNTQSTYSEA
Melanocortin receptor 4 (Homo sapiens), P32245, UniProt P32245, whole entry, looked up: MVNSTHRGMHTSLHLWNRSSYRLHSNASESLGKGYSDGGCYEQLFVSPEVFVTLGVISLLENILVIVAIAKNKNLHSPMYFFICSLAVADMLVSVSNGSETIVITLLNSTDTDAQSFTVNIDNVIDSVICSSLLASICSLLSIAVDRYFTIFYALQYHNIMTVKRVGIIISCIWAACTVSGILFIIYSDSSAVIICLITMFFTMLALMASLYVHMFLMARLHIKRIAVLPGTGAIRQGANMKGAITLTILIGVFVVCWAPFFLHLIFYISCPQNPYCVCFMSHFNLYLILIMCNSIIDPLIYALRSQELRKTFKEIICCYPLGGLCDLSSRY

SMILES	ASAP1 inh	ARFGAP1 inh	CendR NRP1 mod	MC4R ag barr	MC4R antag cAMP	UUG fidelity	U2OS cAMP counter	MC4R antag conf
Cc1sc2nc(CN3CCOCC3)nc(Cl)c2c1C	.	.	.	.	31.9	/	.	.
Cc1ccc(NC(=O)c2cc([N+](=O)[O-])ccc2N2CCCC2)cc1	.	.	.	.	.	/	/	/
COc1ccc(NC(=O)c2cc([N+](=O)[O-])ccc2N2CCN(C)CC2)cc1	.	.	.	.	28.9	/	.	.
C=C(C)CNC(=S)N/N=C/c1ccc([N+](=O)[O-])cc1	.	.	.	.	30.2	/	.	.
COCCNC(=S)N/N=C/c1ccc([N+](=O)[O-])cc1	.	.	.	.	.	.	/	/
Cc1ccc(NC(=S)Nc2cccc(-c3n[nH]c(=S)o3)c2)cc1	.	.	.	.	36.6	/	.	.
COc1ccc(-c2ccc3c(c2)[C@@H]2[C@@H](CCN2C(=O)Cc2ccccc2)[C@@H](CO)N3C)cc1	/	/	/	/	/	.	/	/
O=C(O)CNS(=O)(=O)c1ccc(C2CCCCC2)cc1	.	.	.	.	32.3	/	.	.
CC(C)NC(=O)N(C)C[C@@H]1Oc2ccc(NC(=O)Nc3ccc(F)cc3)cc2C(=O)N([C@@H](C)CO)C[C@H]1C	/	/	/	/	/	.	/	/
C(/C=C/c1ccccc1)=N/N1CCN(c2ccccc2)CC1	.	.	.	.	.	.	/	/
C(=C\c1ccccc1)/C=N/N1CCN(Cc2ccccc2)CC1	.	.	.	.	29.9	/	.	.
CCOC(=O)C1=C(c2ccccc2)NC(=O)NC1c1ccc(OC)c(OC)c1 (stereo unspecified)	.	.	.	.	32.9	/	.	.
Cc1cc(N)ncc1[N+](=O)[O-]	.	.	.	.	.	.	/	/
Cc1cc2nc[nH]c2cc1[N+](=O)[O-]	.	.	.	.	28.7	/	.	.
O=C(c1cc(-c2cccc(O)c2)on1)N1CCCCC1	.	.	.	.	.	.	/	/
O=C(c1cc(-c2cccc(O)c2)on1)N1CCCC1	.	.	.	.	31.4	.	.	.
O=C(Nc1ccccc1C(F)(F)F)c1c(F)cccc1Cl	.	.	.	.	30.4	/	.	.
C[C@H]1CCCCO[C@@H](CN(C)Cc2ccncc2)[C@@H](C)CN([C@@H](C)CO)C(=O)c2cc(NC(=O)C3CCCCC3)ccc2O1	/	/	/	/	/	.	/	/
Cc1ccc(C(C2=C(O)CC(C)(C)CC2=O)C2C(=O)CC(C)(C)CC2=O)s1 (stereo unspecified)	.	.	.	.	.	.	/	/
CC1(C)CC(=O)C(C(C2=C(O)CC(C)(C)CC2=O)c2ccc(Br)s2)C(=O)C1 (stereo unspecified)	.	.	.	.	39.0	.	.	.
C[C@H]1CCCCO[C@H](CN(C)C(=O)Nc2ccc(C(F)(F)F)cc2)[C@@H](C)CN([C@@H](C)CO)C(=O)c2cc(NS(=O)(=O)c3ccccc3)ccc2O1	/	/	/	/	/	.	/	/
O=C(/C=C/c1ccco1)NC(=S)Nc1cc(-c2nc3ccccc3s2)ccc1Cl	.	.	.	.	33.9	/	.	.
C=CCc1cccc2cc(C(=O)N3CCOCC3)c(=O)oc12	.	.	.	.	.	.	/	/
C=CCc1cccc2cc(C(=O)N3CCN(C(=O)c4ccccc4)CC3)c(=O)oc12	.	.	.	.	30.2	.	.	.
O=C(O)C[C@@H]1C[C@H]2c3cc(NC(=O)C4CCC4)ccc3O[C@H]2[C@H](CO)O1	/	/	/	/	/	.	/	/
SMILES	ASAP1 inh	ARFGAP1 inh	CendR NRP1 mod	MC4R ag barr	MC4R antag cAMP	UUG fidelity	U2OS cAMP counter	MC4R antag conf
COC(=O)COc1ccc(S(=O)(=O)N2CCN(c3ccccc3F)CC2)cc1	.	.	.	.	41.8	.	13.9	33.3
COC(=O)COc1ccc(S(=O)(=O)N2CCN(c3ccccc3)CC2)cc1	.	.	.	.	50.0	.	13.7	.
N#Cc1ccc(-c2ccc3c(c2)[C@H]2[C@H](CCN2C(=O)c2ccncc2)[C@H](CO)N3)cc1	/	/	/	/	/	.	/	/
COC(=O)Cn1c(CN2CCN(c3ccc(F)cc3)CC2)nc2c1c(=O)n(C)c(=O)n2C	/	/	.	.	28.9	.	.	.
CCOCCn1c(CN2CCN(c3ccc(F)cc3)CC2)nc2c1c(=O)n(C)c(=O)n2C	.	.	.	.	.	.	/	/
Cc1cccc(N2C(=O)C(O)=C(C(=O)c3cccs3)C2c2ccccc2)n1 (stereo unspecified)	.	.	.	.	29.9	/	.	.
COC(=O)C(Cc1c[nH]c2ccccc12)NC(=O)c1cccs1 (stereo unspecified)	.	.	.	.	.	.	/	/
COc1ccc(CNC(=O)COC(=O)[C@H](Cc2c[nH]c3ccccc23)NC(=O)c2cccs2)cc1	.	.	.	.	42.7	.	22.4	.
COC(=O)[C@H](Cc1c[nH]c2ccccc12)NC(=O)NCc1ccc(OC)cc1	.	.	.	.	36.8	.	.	.
C[C@@H]1CN([C@@H](C)CO)C(=O)Cc2cc(NC(=O)Nc3cccc4ccccc34)ccc2O[C@H]1CN(C)Cc1ccc2c(c1)OCO2	/	/	/	/	/	.	/	/
Cc1noc(C)c1NC(=O)Nc1ccc2c(c1)CC(=O)N([C@@H](C)CO)C[C@@H](C)[C@@H](CN(C)Cc1ccc(Oc3ccccc3)cc1)O2	/	/	/	/	/	.	/	/
CCOC(=O)CC1C(=O)NCCN1C(=S)Nc1ccccc1 (stereo unspecified)	.	.	.	.	28.6	/	.	.
CC(C)(C)C(=O)COC(=O)c1ccc2c(c1)C(=O)N(Cc1ccco1)C2=O	.	.	.	.	37.0	.	.	.
COc1cccc(-c2ccc([C@H]3[C@H]4CN(CC5CCOCC5)CCCCN4[C@H]3CO)cc2)c1	/	/	/	/	/	.	/	/
C[C@H](CO)N1C[C@H](C)[C@@H](CN(C)S(=O)(=O)c2cccs2)OCCCC[C@H](C)Oc2ccc(N(C)C)cc2C1=O	/	/	/	/	/	.	/	/
